Measured values published in ChEMBL document CHEMBL3392991, “Structure-based design of bacterial nitric oxide synthase inhibitors” (J Med Chem, 2015).

System: Bacillus subtilis
Assay: Displacement of imidazole from Bacillus subtilis NOS in presence of 50 uM H4B

`N=C(NCCC[C@H](N)C(=O)O)N[N+](=O)[O-]` was tested, and the Ks was 4.4 µM.
